Assay: Delivery and retention of Herceptin at the tumor, immunohistochemistry of tumor biopsies
Format: in vivo
Settings: detection antibody dilution 1:1500; aerosol delivery; FIG. 6, FIG. 7A
Experimental: The ability of aerosolized fluorochemicals to deliver bioagents to a target and enhance their retention at that site makes them a novel therapeutic agent. To analyze the effectiveness of fluorochemicals as a delivery vehicle, different amounts of a bioactive agent were administered to a subject and the target site and agent retention were examined.
In particular, an aerosolized fluorocarbon emulsion containing the anti-cancer agent Herceptin was administered to a subject. The aerosol contained 60% perflubron/egg yolk phospholipid emulsion. Tumor biopsies were collected and analyzed using immunohistochemistry techniques and antibodies for detecting Herceptin. Herceptin was detected using a dilution of 1:1500 of antibody in tumors collected from subjects treated with Herceptin only (FIG. 6). […] In these tumors, Herceptin could be detected using a dilution as much as 1:30,000 (FIG. 7B).

trastuzumab [Herceptin]
Herceptin detection in tumor biopsies by immunohistochemistry: detected
